{
  "source": "PubChem BioAssay AID1159563",
  "about": "(GlaxoSmithKline (GSK), 2015)",
  "tested_on": "HepG2 cytotoxicity",
  "assay": "human hepatoma cell viability loss – cytotoxicity control (AID 1159563)",
  "data": [
    {"compound": "CC(C)(C)c1ccc(NC2(C(N)=O)CCN(Cc3ccccc3)CC2)cc1", "values": [
      {"measurement": "IC50", "value": 50, "unit": "µM"}
    ]}
  ]
}
